Laboratory results published in patent publication US10233209B2, “Inhibitors of the farnesoid x receptor and uses in medicine” (The United States of America, as represented by the …, priority 2013, dated 2019).

Target: T1, human FXR (Homo sapiens, UniProt Q96RI1)
T1 construct: expressed in transfected cells; host or cells: HEK293T
T1 sequence (Q96RI1 262-486 limits assumed): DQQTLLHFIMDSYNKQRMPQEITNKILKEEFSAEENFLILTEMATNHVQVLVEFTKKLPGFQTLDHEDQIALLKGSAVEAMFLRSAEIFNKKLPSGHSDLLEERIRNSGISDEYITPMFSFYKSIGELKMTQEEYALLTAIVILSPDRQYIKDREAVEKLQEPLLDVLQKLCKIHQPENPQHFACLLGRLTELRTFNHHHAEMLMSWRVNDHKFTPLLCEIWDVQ
Experiment: human FXR competition assay (GAL4-FXR chimeric receptor luciferase, HEK293T)
Assay type: cell-based
Conditions: in the presence of GW4064
Description: Luciferase detection was conducted using the Dual Luciferase Reporter Assay kit (Promega Corp., Madison, Wis.) and a Tecan GeniosPro luminescent plate reader (Research Triangle Park, N.C.).
Luciferase detection was conducted using the Dual Luciferase Reporter Assay kit (Promega; Madison, Wis.) and a Tecan GeniosPro™ luminescent plate reader (Research Triangle Park, N.C.).

Q: `C[C@H](CCC(=O)NCCS(=O)(=O)O)[C@H]1CC[C@H]2[C@@H]3[C@@H](O)C[C@@H]4C[C@H](O)CC[C@]4(C)[C@H]3CC[C@]12C` [TUDCA, tauroursodeoxycholic acid] was tested. Which “FXR activity induced by synthetic agonist GW4064 (luciferase, normalized to Renilla)” value did it give?
A: inhibited FXR
